These results are taken from US20040175368A1 (Wisconsin Alumni Research Foundation, priority 2001, published 2004).

Molecules are shown by their SMILES. Like-named read-outs stand apart in the source and are kept apart here.

The assay concerns L1210 leukemia cells. To be noted: for selectivity of phototoxic effect, tumor (L1210) versus normal (CFU-GM) cells (in words): comparison of FIG. 3 upper and lower panels; for phototoxicity toward L1210 leukemia cells (in words): 1.0×10^−6 M dye, 12% FBS, light up to 90 min (FIG. 3 upper panel).

On to `CN(C)c1ccc(C(=C2C=CC(=[N+](C)C)C=C2)c2ccc(N(C)C)cc2)cc1` [CV^+, crystal violet], for which the “selectivity of phototoxic effect, tumor (L1210) versus normal (CFU-GM) cells (in words)” value (“selectivity of phototoxic effect, tumor” below) is listed as “substantially more efficient in selectively photoinactivating L1210 cells”. In addition, under “cell suspension purged with argon immediately before irradiation (data not shown)”, the “phototoxic effect toward L1210 cells on purging with argon” value was “lowered”. Besides, the “phototoxic effect toward L1210 cells on purging with oxygen” value (cell suspension purged with oxygen before irradiation (data not shown)) is “enhanced”.

As to `CCN(CC)c1ccc(C(=C2C=CC(=[N+](CC)CC)C=C2)c2ccc(N(CC)CC)cc2)cc1` [EV^+, ethyl violet], the “phototoxicity toward L1210 leukemia cells (in words)” value is given as “phototoxic toward both cell lines” and the “selectivity of phototoxic effect, tumor” value is “slightly”.

Consider `CCN=C1C=CC(=C(c2ccc(N(C)C)cc2)c2ccc(N(C)C)cc2)c2ccccc21.Cl` [VBR^+, victoria blue R], for which the “phototoxicity toward L1210 leukemia cells (in words)” value is recorded as “lowest efficacy” and the “selectivity of phototoxic effect, tumor” value is reported as “slightly”.

As for `CCN=C1C=CC(=C(c2ccc(N(CC)CC)cc2)c2ccc(N(CC)CC)cc2)c2ccccc21.Cl` [VPBBO^+, victoria pure blue BO], the “phototoxicity toward L1210 leukemia cells (in words)” value is listed as “reasonable efficiency”. Also, the “phototoxicity toward L1210 leukemia cells (in words)” value (listed as VPBBO+) is “intermediate efficacy”.
